# Tests used:
# Assay type in all cases: functional
# Conditions in all cases: ATCC 25922, 18 h
# [1] = tested on: Escherichia coli; experiment: Antibacterial activity against Escherichia coli ATCC 25922 after 18 hrs in presence of NaCl by broth dilution method
# [2] = tested on: Escherichia coli; experiment: Antibacterial activity against Escherichia coli ATCC 25922 after 18 hrs in presence of KCl by broth dilution method
# [3] = tested on: Escherichia coli; experiment: Antibacterial activity against Escherichia coli ATCC 25922 after 18 hrs in presence of NH4Cl by broth dilution method
# [4] = tested on: Escherichia coli; experiment: Antibacterial activity against Escherichia coli ATCC 25922 after 18 hrs in presence of MgCl2 by broth dilution method
# [5] = tested on: Escherichia coli; experiment: Antibacterial activity against Escherichia coli ATCC 25922 after 18 hrs in presence of CaCl2 by broth dilution method
# [6] = tested on: Escherichia coli; experiment: Antibacterial activity against Escherichia coli ATCC 25922 after 18 hrs in presence of ZnCl2 by broth dilution method
# [7] = tested on: Escherichia coli; experiment: Antibacterial activity against Escherichia coli ATCC 25922 after 18 hrs in presence of FeCl3 by broth dilution method
# [8] = tested on: Escherichia coli; experiment: Antibacterial activity against Escherichia coli ATCC 25922 after 18 hrs in presence of 12.5% human heat-inactivated serum by broth dilution method
# [9] = tested on: Escherichia coli; experiment: Antibacterial activity against Escherichia coli ATCC 25922 after 18 hrs in presence of 25% human heat-inactivated serum by broth dilution method
# [10] = tested on: Escherichia coli; experiment: Antibacterial activity against Escherichia coli ATCC 25922 after 18 hrs in presence of 50% human heat-inactivated serum by broth dilution method
smiles,measurement,setting,value
CC[C@H](C)[C@H](NC(=O)CN)C(=O)NCC(=O)N[C@@H](C)C(=O)N[C@H](C(=O)N[C@@H](CC(C)C)C(=O)N[C@@H](CCCCN)C(=O)N[C@H](C(=O)N[C@@H](CC(C)C)C(=O)N[C@H](C(=O)N[C@H](C(=O)NCC(=O)N[C@@H](CC(C)C)C(=O)N1CCC[C@H]1C(=O)N[C@@H](C)C(=O)N[C@@H](CC(C)C)C(=O)N[C@H](C(=O)N[C@@H](CO)C(=O)N[C@@H](Cc1c[nH]c2ccccc12)C(=O)N[C@H](C(=O)N[C@@H](CCCCN)C(=O)N[C@@H](CCCNC(=N)N)C(=O)N[C@@H](CCCCN)C(=O)N[C@@H](CCCNC(=N)N)C(=O)N[C@@H](CCC(N)=O)C(=O)N[C@@H](CCC(N)=O)C(N)=O)[C@@H](C)CC)[C@@H](C)CC)[C@@H](C)O)[C@@H](C)O)C(C)C)C(C)C [MELITTIN],MIC,[1],4 µM
same,MIC,[2],2 µM
same,MIC,[3],2 µM
same,MIC,[4],4 µM
same,MIC,[5],8 µM
same,MIC,[6],2 µM
same,MIC,[7],2 µM
same,MIC,[8],32 µM
same,MIC,[9],64 µM
same,MIC,[10],64 µM
